Assays:
[1] = MTD and LD50, single intraperitoneal administration; assay type: in vivo, mice; settings: for No. of Survivors Day 1 / No. of Survivors Day 2 / No. of Survivors Day 3 / No. of Survivors Day 4 / No. of Survivors Day 5 / No. of Survivors Day 6 / No. of Survivors Day 7 / No. of Survivors Day 8 / No. of Survivors Day 11: 4 injected
Description: Determinations of a maximal tolerated dose (MTD) of a single intravenous (i.v.) administration or intraperitoneal (i.p.) administration of MSI-344 or MSI-1857 in 100 CD-1®BR mice were done. The MTD of a single intravenous (i.v.) administration was 10 mg/kg for MSI-344 and 60 mg/kg for MSI-1857. The MTD of a single intraperitoneal (i.p.) administration was less than 20 mg/kg for MSI-344 and between 50 and 100 mg/kg for MSI-1857.
To determine estimates of MTDs and LD50s of MSI-344 and MSI-1857 administered intravenously or intraperitoneally as a single bolus in mice.
A 5 mg/mL solution of MSI-344 was made in saline (0.9% sodium chloride injection USP, Abbott, North Chicago, Ill.) corrected for peptide content. Solutions of MSI-344 at concentrations of 4, 3, 2, 1.5, 1, and 0.5 mg/mL were made by diluting the 5 mg/mL solution using saline as diluent. (Errors were made in solution preparation of the 4, 3, and 2 mg/mL solutions and results from groups with animals doses with these solutions, i.e. groups 12, 13, and 14, were eliminated from study analysis). A 20 mg/mL solution of MSI-1857 was made in saline. Solutions of MSI-1857 at concentrations of 15, 10, 8, 6, and 5 mg/mL were made by diluting the 20 mg/mL solution using saline as diluent.
Another 5 mg/mL solution of MSI-344 was made in saline corrected for peptide content. Solutions of 4, 3 and 2 mg/mL were made by diluting the 5 mg/mL solution using saline as diluent. A 15 mg/mL solution of MSI-1857 in saline was made corrected for peptide content. A 10 mg/mL solution was made by diluting the 15 mg/mL solution with saline.
Mice (four mice per dose group) were intravenously or intraperitoneally administered a single bolus of MSI-344 or MSI-1857 using an injection volume of 10 mL/kg of the appropriate solution concentration. If the first two mice in a group died immediately (within 10 secs) after administration of a dose then no other mice injected with this dose of this compound (for ethical reasons). Survival was monitored daily for at least eight days post-administration. Study designs are presented in Tables IX and X. Toxicity Study # 262 was a supplement to Toxicity Study #261.

[2] = test system: E. coli ATCC strain 25922; assay: Minimal Inhibitory Concentration, microtiter broth dilution; assay type: cell-based
From the text: Table I, which follows, indicates the Minimal Inhibitory Concentration (MIC) in […] of various peptides against S.aureus strain ATCC 25923(S), P. aeruginosa strain ATCC 27853(P), E. coli ATCC strain 25922(E), and C. 4albicans (CA). […] The peptides are unsubstituted at the N-terminal; substituted with an acetyl group at the N-terminal, as indicated by Ac-; substituted with an octanoyl group at the N-terminal, as indicated by Oct-; substituted with spinogosine, as indicated by Sph-; substituted with a succinyl group, as indicated by Suc-; substituted with a hexanoyl group, as indicated by Hex-; substituted with a heptanoyl group, as indicated by Hep-; substituted with a valeryl group, as indicated by Val-; substituted with a myristryl group, as indicated by Myr-; or substituted with an ibuprofyl group, as indicated by Ibu-; […]
The stock peptide solution was diluted in serial dilutions (1:2) down the wells of a microtiter plate so that the final concentrations of peptides in the wells were 0.25, 0.50, 1, 2, 4, 8, 16, 32, 64, 128 and 256 μg/ml. […] The plates were incubated for 16-20 hours at 37° C., and the minimal inhibitory concentration (MIC) for each peptide was determined. […]
The in vitro anti-microbial activities of the methane sulfonate derivatives were determined according to the methods described in Examples 1 and 2. […]

[3] = Tox Study 262 group 6, 150 mg/kg IP
[4] = Tox Study 262 group 7, 100 mg/kg IP
[5] = Tox Study #261 group 15, 200 mg/kg IP
[6] = Tox Study #261 group 16, 150 mg/kg IP
[7] = Tox Study #261 group 17, 100 mg/kg IP
[8] = Tox Study #261 group 18, 50 mg/kg IP

CC[C@H](C)[C@H](NC(=O)CNCS(=O)(=O)O)C(=O)NCC(=O)N[C@@H](CCCCNCS(=O)(=O)O)C(=O)N[C@@H](Cc1ccccc1)C(=O)N[C@@H](CC(C)C)C(=O)N[C@@H](CCCCNCS(=O)(=O)O)C(=O)N[C@@H](CCCCNCS(=O)(=O)O)C(=O)N[C@@H](C)C(=O)N[C@@H](CCCCNCS(=O)(=O)O)C(=O)N[C@@H](CCCCNCS(=O)(=O)O)C(=O)N[C@@H](Cc1ccccc1)C(=O)NCC(=O)N[C@@H](CCCCNCS(=O)(=O)O)C(=O)N[C@@H](C)C(=O)N[C@@H](Cc1ccccc1)C(=O)N[C@H](C(=O)N[C@@H](CCCCNCS(=O)(=O)O)C(=O)N[C@H](C(=O)N[C@@H](CC(C)C)C(=O)N[C@@H](CCCCNCS(=O)(=O)O)C(=O)N[C@@H](CCCCNCS(=O)(=O)O)C(=O)O)[C@@H](C)CC)C(C)C [MSI-1857]
120 mg/kg: LD50 ([1]; mouse, in vivo, ip, CD-1 mice, estimated from dose response curves)
0: No. of Survivors Day 1 [1, 5] | No. of Survivors Day 2 [1, 5] | No. of Survivors Day 3 [1, 5] | No. of Survivors Day 4 [1, 5] | No. of Survivors Day 5 [1, 5] | No. of Survivors Day 6 [1, 5] | No. of Survivors Day 7 [1, 5] | No. of Survivors Day 8 [1, 5]
4: No. of Survivors Day 1 [1, 4] | No. of Survivors Day 2 [1, 4] | No. of Survivors Day 3 [1, 4] | No. of Survivors Day 4 [1, 4] | No. of Survivors Day 5 [1, 4] | No. of Survivors Day 6 [1, 4] | No. of Survivors Day 7 [1, 4] | No. of Survivors Day 8 [1, 4] | No. of Survivors Day 11 [1, 4] | No. of Survivors Day 1 [1, 7] | No. of Survivors Day 1 [1, 8] | No. of Survivors Day 2 [1, 8] | No. of Survivors Day 3 [1, 8] | No. of Survivors Day 4 [1, 8] | No. of Survivors Day 5 [1, 8] | No. of Survivors Day 6 [1, 8] | No. of Survivors Day 7 [1, 8] | No. of Survivors Day 8 [1, 8]
50 to 100 mg/kg: MTD ([1]; mouse, in vivo, ip, CD-1 mice, read-out: MTD of a single intraperitoneal (i.p.) administration)
3: No. of Survivors Day 2 [1, 7] | No. of Survivors Day 3 [1, 7] | No. of Survivors Day 4 [1, 7] | No. of Survivors Day 5 [1, 7] | No. of Survivors Day 6 [1, 7] | No. of Survivors Day 7 [1, 7] | No. of Survivors Day 8 [1, 7]
1: No. of Survivors Day 1 [1, 3] | No. of Survivors Day 2 [1, 3] | No. of Survivors Day 3 [1, 3] | No. of Survivors Day 4 [1, 3] | No. of Survivors Day 5 [1, 3] | No. of Survivors Day 6 [1, 3] | No. of Survivors Day 7 [1, 3] | No. of Survivors Day 8 [1, 3] | No. of Survivors Day 11 [1, 3] | No. of Survivors Day 1 [1, 6] | No. of Survivors Day 2 [1, 6] | No. of Survivors Day 3 [1, 6] | No. of Survivors Day 4 [1, 6] | No. of Survivors Day 5 [1, 6] | No. of Survivors Day 6 [1, 6] | No. of Survivors Day 7 [1, 6] | No. of Survivors Day 8 [1, 6]
32 µg/mL: MIC E. coli ATCC 25922 [2]

— patent publication US6348445B1, “Biologically active peptides with reduced toxicity in animals and a method for preparing same” (priority 1992, dated 2002)
